Source: US20260176279A1, “DUAL RAF AND TUBULIN INHIBITORS AND METHODS OF USE THEREOF” (Deciphera Pharmaceuticals, LLC, priority 2023, published 2026)

The chains behind the UniProt entries cited, without tags or fusion partners. Residues count along the entry.
UniProt P15056, 416-766: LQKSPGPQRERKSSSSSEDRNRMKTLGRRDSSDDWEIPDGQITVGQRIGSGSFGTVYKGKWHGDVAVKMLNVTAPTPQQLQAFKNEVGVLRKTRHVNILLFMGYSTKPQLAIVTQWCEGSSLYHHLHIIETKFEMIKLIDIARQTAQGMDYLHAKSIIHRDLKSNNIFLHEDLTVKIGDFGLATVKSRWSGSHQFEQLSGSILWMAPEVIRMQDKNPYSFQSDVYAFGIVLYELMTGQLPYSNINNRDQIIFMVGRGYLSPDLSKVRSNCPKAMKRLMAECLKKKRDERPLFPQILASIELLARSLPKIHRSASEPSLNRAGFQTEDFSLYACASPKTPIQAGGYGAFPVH
UniProt P04049, 307-648 Y340D/Y341D: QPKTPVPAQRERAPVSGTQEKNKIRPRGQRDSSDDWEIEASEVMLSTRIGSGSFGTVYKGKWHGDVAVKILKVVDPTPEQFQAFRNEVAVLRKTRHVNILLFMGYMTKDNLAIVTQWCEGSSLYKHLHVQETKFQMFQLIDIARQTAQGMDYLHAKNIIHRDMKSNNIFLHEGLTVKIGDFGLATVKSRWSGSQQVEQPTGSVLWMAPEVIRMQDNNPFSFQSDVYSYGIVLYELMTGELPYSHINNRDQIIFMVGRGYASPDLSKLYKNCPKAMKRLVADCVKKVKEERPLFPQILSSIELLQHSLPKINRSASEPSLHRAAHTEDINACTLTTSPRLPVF

Legend:
B-Raf kinase = B-Raf kinase (Homo sapiens, UniProt P15056); assay: Biochemical Assay for B-Raf (coupled pyruvate kinase/lactate dehydrogenase assay); details: read-out: BRAF; Table 1, inhibition of biochemical activity
C-Raf kinase = C-Raf kinase (Homo sapiens, UniProt P04049, Y340D/Y341D); assay: Biochemical Assay for C-Raf (coupled pyruvate kinase/lactate dehydrogenase assay); details: read-out: CRAF; Table 1, inhibition of biochemical activity
MiaPaca-2 cells = assay: MiaPaca-2 Cell Proliferation Assay; details: read-out: MiaPaca-2; Table 2, inhibition of cell proliferation
HCT-116 cells = assay: HCT-116 Cell Proliferation Assay; details: read-out: HCT-116; Table 2, inhibition of cell proliferation
HPAF-II cells = assay: HPAF-II Cell Proliferation Assay; details: read-out: HPAF-II; Table 2, inhibition of cell proliferation

IC50 (B-Raf kinase): < 100 nM | IC50 (C-Raf kinase): < 100 nM | IC50 (MiaPaca-2 cells): < 100 nM | IC50 (HCT-116 cells): < 100 nM
SMILES: Cc1ccc(NC(=O)Nc2ccc(C(F)(F)F)nc2)cc1-c1cc(OCCO)nc(C2CCOCC2)c1
IC50 (HPAF-II cells): < 100 nM
